Results reported in PubChem BioAssay AID2521 (Sanford-Burnham Center for Chemical Genomics, 2010).
The entries are a selection whose mix differs from that of the whole data set. The source made the active and inactive calls.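 Rule for the calls: active = inhibition above about 40% at 20 µM (limit read from the data); inactive = the rest.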

The chains behind the UniProt entries cited, without tags or fusion partners.
UniProt P35414, whole entry: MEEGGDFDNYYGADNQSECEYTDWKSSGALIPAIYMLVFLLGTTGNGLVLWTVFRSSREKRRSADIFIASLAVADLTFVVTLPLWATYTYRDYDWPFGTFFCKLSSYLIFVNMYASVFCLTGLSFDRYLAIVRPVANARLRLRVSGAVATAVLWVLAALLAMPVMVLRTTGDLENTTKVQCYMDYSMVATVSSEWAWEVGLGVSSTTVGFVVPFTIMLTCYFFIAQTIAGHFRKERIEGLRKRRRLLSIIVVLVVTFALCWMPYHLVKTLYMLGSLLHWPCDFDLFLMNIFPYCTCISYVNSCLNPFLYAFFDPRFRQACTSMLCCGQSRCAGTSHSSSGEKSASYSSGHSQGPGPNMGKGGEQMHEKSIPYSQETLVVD

Target: Apelin receptor (Homo sapiens) (UniProt P35414)
Test: blockade of apelin-induced APJ beta-arrestin recruitment – CHO-K1 cells, beta-arrestin complementation, luminescence, primary screen (AID 2521);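 note: cells challenged with 10 nM apelin-13 agonist together with compound; plate controls were apelin-13 plus DMSO wells for no effect and DMSO wells lacking apelin-13 for full effect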
Conditions: at 20 µM, active compounds read high

Q: How did the inhibition turn out when CCCOc1ccc(C)cc1CN(CCCl)CCCl was run?
A: The inhibition was inactive: -1.04%.

Q: For CN1CCC(Nc2ccc(Cl)cc2)CC1, which inhibition is on record?
A: The inhibition was inactive: 12.1%.

Q: How did the inhibition turn out when CCC(CO)(C(=O)OC1CN2CCC1CC2)c1ccccc1 (configuration not stated) was run?
A: Its inhibition is inactive: -0.274%.

Q: How did the inhibition turn out when COc1cc(OC)cc(C(=O)NCC2(N3CCOCC3)CCCCC2)c1 was run?
A: The inhibition was inactive: 14.3%.

Q: COc1cccc(C(=O)N(c2cc(C)cc(C)c2)C2CCN(C(=O)OC(C)(C)C)CC2)c1 was tested. Which inhibition did it give?
A: The inhibition was inactive: -16.2%.

Q: Which inhibition does the source give for CCCOc1ccc(C(=O)NCC2(N(C)C)CCCCC2)cc1 here?
A: Its inhibition is inactive: -7.25%.

Q: Which inhibition does the source give for CC(C)(C)OC(=O)N1CCC(Nc2ccccc2)CC1 here?
A: Its inhibition is inactive: 6.36%.

Q: With O=C(O)C1(Nc2ccccc2)CCN(Cc2ccccc2)CC1 as the compound, how does the inhibition read?
A: The inhibition was inactive: 0.587%.

Q: Which inhibition does the source give for CCOc1ncccc1C(=O)NCC1(N2CCOCC2)CCCCC1 here?
A: Its inhibition is inactive: 4.24%.

Q: How did the inhibition turn out when CN1CCC(Nc2ccc(F)c(Cl)c2)CC1 was run?
A: The inhibition was inactive: -8.55%.

Q: How did the inhibition turn out when O=C(NCC1(N2CCCCC2)CCCCC1)c1ccco1 was run?
A: Its inhibition is inactive: 9.06%.

Q: Which inhibition does the source give for CN(C)c1ccc(C(=O)NCC2(N3CCCCC3)CCCCC2)cc1 here?
A: Its inhibition is inactive: 15.2%.

Q: With CCN1CCC(Nc2cccc(F)c2)CC1 as the compound, how does the inhibition read?
A: The inhibition was inactive: 0.659%.

Q: With Cc1ccc(C(=O)NCC2(N3CCCCC3)CCCCC2)o1 as the compound, how does the inhibition read?
A: The inhibition was inactive: -10%.

Q: For Fc1ccccc1NC1CCN(Cc2ccccc2)CC1, which inhibition is on record?
A: The inhibition was inactive: -13.3%.

Q: COc1cc(OC)cc(C(=O)NCC2(N3CCCCC3)CCCCC2)c1 was tested. Which inhibition did it give?
A: The inhibition was inactive: 9.78%.

Q: c1ccc(CN2CCC(Nc3ccccc3)CC2)cc1 was tested. Which inhibition did it give?
A: Its inhibition is inactive: 9.09%.

Q: CCCN1CCC(Nc2cc(OC)cc(OC)c2)CC1 was tested. Which inhibition did it give?
A: The inhibition was inactive: -15.8%.

Q: With CN(C)C1(CNC(=O)c2cccc(C#N)c2)CCCCC1 as the compound, how does the inhibition read?
A: The inhibition was inactive: -12.8%.

Q: Which inhibition does the source give for CC(C)(C)OC(=O)N1CCC(N(C(=O)c2ccccc2)c2ccc(Cl)cc2)CC1 here?
A: Its inhibition is inactive: 2.63%.

Q: Which inhibition does the source give for N#Cc1ccc(C(=O)NCC2(N3CCCCC3)CCCCC2)cc1 here?
A: The inhibition was inactive: 5.37%.

Q: How did the inhibition turn out when CCc1cc(C(=O)NCC2(N3CCCCC3)CCCCC2)sc1C was run?
A: Its inhibition is inactive: 22.8%.

Q: Which inhibition does the source give for O=C(OC1CN2CCC1CC2)C1c2ccccc2C=Cc2ccccc21 (configuration not stated) here?
A: Its inhibition is inactive: -8.9%.

Q: Which inhibition does the source give for N/C(=N\O)c1c(N)no[n+]1[O-] here?
A: The inhibition was inactive: -0.00711%.

Q: CCOC(=O)N1CCC(Nc2ccc(C)cc2)CC1 was tested. Which inhibition did it give?
A: Its inhibition is inactive: 18.2%.

Q: For COc1ccc(C(=O)NCC2(N3CCOCC3)CCCCC2)cc1OC, which inhibition is on record?
A: The inhibition was inactive: 6.5%.

Q: O=C(NCC1(N2CCOCC2)CCCCC1)c1cc(Br)ccc1Cl was tested. Which inhibition did it give?
A: Its inhibition is inactive: 7.88%.

Q: How did the inhibition turn out when COc1cc(C(=O)NCC2(N3CCOCC3)CCCCC2)cc(OC)c1C was run?
A: Its inhibition is inactive: -4.15%.

Q: With CN1CCC(Nc2cccc(F)c2)CC1 as the compound, how does the inhibition read?
A: The inhibition was inactive: 14.9%.

Q: For O=C(NCC1(N2CCCCC2)CCCCC1)c1cncc(Br)c1, which inhibition is on record?
A: The inhibition was inactive: 9.66%.

Q: How did the inhibition turn out when COc1cc(OC)c(C(=O)NCC2(N(C)C)CCCCC2)cc1OC was run?
A: The inhibition was inactive: 18.4%.

Q: For O=C(NCC1(N2CCOCC2)CCCCC1)c1cc(F)c(F)cc1Cl, which inhibition is on record?
A: The inhibition was inactive: 0.0582%.

Q: COc1ccc(CN(CCCl)CCCl)cc1Cl was tested. Which inhibition did it give?
A: Its inhibition is inactive: 9.16%.

Q: CN(C)c1cccc(C(=O)NCC2(N3CCCCC3)CCCCC2)c1 was tested. Which inhibition did it give?
A: The inhibition was inactive: -3.61%.

Q: For CC(C)c1ccc(NC2CCN(C(=O)OC(C)(C)C)CC2)cc1, which inhibition is on record?
A: Its inhibition is inactive: 8.64%.

Q: Which inhibition does the source give for CN1CCN(CCOC(=O)C(O)(c2ccccc2)c2ccccc2)CC1 here?
A: The inhibition was inactive: 2.61%.

Q: COc1ccc(NC2CCN(C(=O)OC(C)(C)C)CC2)cc1 was tested. Which inhibition did it give?
A: Its inhibition is inactive: 3.94%.

Q: With CC(C)c1ccc(C(=O)NCC2(N3CCOCC3)CCCCC2)cc1 as the compound, how does the inhibition read?
A: Its inhibition is inactive: 9.74%.

Q: COc1cc(C(=O)NCC2(N3CCCCC3)CCCCC2)ccc1OC(F)F was tested. Which inhibition did it give?
A: Its inhibition is inactive: -1.83%.

Q: Which inhibition does the source give for O=C(NCC1(N2CCOCC2)CCCCC1)c1cc(=O)[nH]c2ccccc12 here?
A: Its inhibition is inactive: 5.56%.

Q: How did the inhibition turn out when O=C(NCC1(N2CCCCC2)CCCCC1)c1cccc(C(F)(F)F)c1 was run?
A: Its inhibition is inactive: 11%.

Q: For CSc1ccc(C(=O)NCC2(N3CCOCC3)CCCCC2)cc1, which inhibition is on record?
A: The inhibition was inactive: -38.6%.

Q: Which inhibition does the source give for O=C(NCC1(N2CCCCC2)CCCCC1)c1cccc([N+](=O)[O-])c1 here?
A: The inhibition was inactive: -6.68%.

Q: CCN1CCC(Nc2ccc(Cl)cc2)CC1 was tested. Which inhibition did it give?
A: The inhibition was inactive: 7.75%.

Q: With N#CC1(Nc2ccccc2)CCN(CCc2ccccc2)CC1 as the compound, how does the inhibition read?
A: Its inhibition is inactive: 8.23%.

Q: O=C(NCC1(N2CCCCC2)CCCCC1)c1ccc(OC(F)F)cc1 was tested. Which inhibition did it give?
A: The inhibition was inactive: -1.14%.

Q: How did the inhibition turn out when CCOC(=O)N1CCC(Nc2cccc(C)c2)CC1 was run?
A: Its inhibition is inactive: 4.28%.

Q: Which inhibition does the source give for Cc1ccc(OCC(C)C)c(CN(CCCl)CCCl)c1 here?
A: Its inhibition is inactive: 19.9%.

Q: Which inhibition does the source give for CCCCOc1ccc(C(=O)NCC2(N3CCOCC3)CCCCC2)cc1 here?
A: The inhibition was inactive: -41.5%.

Q: Which inhibition does the source give for O=C(NCC1(N2CCCCC2)CCCCC1)c1ccc(F)cc1 here?
A: Its inhibition is inactive: -0.322%.

Q: For COc1ccc(NC2CCN(CCc3ccccc3)CC2)c(OC)c1, which inhibition is on record?
A: Its inhibition is inactive: -6.13%.

Q: CCOC(=O)N1CCC(Nc2ccc(F)cc2)CC1 was tested. Which inhibition did it give?
A: The inhibition was inactive: 17.6%.

Q: How did the inhibition turn out when CCOc1ccc(C)cc1CN(CCCl)CCCl was run?
A: The inhibition was inactive: -5.25%.

Q: How did the inhibition turn out when CCOC(=O)N1CCC(Nc2ccc(OC)cc2)CC1 was run?
A: The inhibition was inactive: 3.66%.

Q: How did the inhibition turn out when N#CC1(Nc2ccccc2)CCN(Cc2ccccc2)CC1 was run?
A: The inhibition was inactive: 1.46%.

Q: How did the inhibition turn out when O=C(NCC1(N2CCCCC2)CCCCC1)c1ccc(Cl)s1 was run?
A: Its inhibition is inactive: 0.919%.

Q: For O=C(OC1CN2CCC1CC2)C1c2ccccc2Oc2ccccc21 (configuration not stated), which inhibition is on record?
A: The inhibition was inactive: 1.2%.

Q: How did the inhibition turn out when COc1ccc(Cl)cc1C(=O)NCC1(N2CCOCC2)CCCCC1 was run?
A: Its inhibition is inactive: 10.8%.

Q: How did the inhibition turn out when O=C(NCC1(N2CCOCC2)CCCCC1)c1cc2ccccc2o1 was run?
A: The inhibition was inactive: 11.4%.

Q: How did the inhibition turn out when O=C(NCC1(N2CCCCC2)CCCCC1)c1ccc(Cl)nc1 was run?
A: The inhibition was inactive: 9.1%.

Q: Cc1cc(C)cc(N(C(=O)c2ccccc2)C2CCN(C(=O)OC(C)(C)C)CC2)c1 was tested. Which inhibition did it give?
A: The inhibition was inactive: -3.68%.

Q: CSc1ccccc1C(=O)NCC1(N2CCCCC2)CCCCC1 was tested. Which inhibition did it give?
A: The inhibition was inactive: -4.36%.

Q: Which inhibition does the source give for O=C(NCC1(N2CCCCC2)CCCCC1)c1ccc(=O)[nH]c1 here?
A: The inhibition was inactive: 8.6%.

Q: For O=C(NCC1(N2CCCCC2)CCCCC1)c1cccs1, which inhibition is on record?
A: The inhibition was inactive: 0.293%.

Q: COc1ccc(C(=O)NCC2(N3CCCCC3)CCCCC2)cc1 was tested. Which inhibition did it give?
A: The inhibition was inactive: 9.74%.

Q: Which inhibition does the source give for COc1ccc(C(=O)NCC2(N3CCCCC3)CCCCC2)c(OC)c1OC here?
A: The inhibition was inactive: 8.36%.

Q: How did the inhibition turn out when CC(C)(C)OC(=O)N1CCC(N(C(=O)c2ccccc2)c2ccc(F)cc2)CC1 was run?
A: Its inhibition is inactive: 21.4%.
